AlphaSeq binding of Ab-91 heavy chain variants to a spike HR2 peptide

Source: Engelhart et al. 2022 (doi:10.1038/s41597-022-01779-4), MIT Lincoln Laboratory and A-Alpha Bio; data file from the FLAb repository.

Target peptide (SARS-CoV-2 spike, HR2 region): PDVDLGDISGINAS

Each scFv is VL, three GGGGS repeats, VH, as in the parent Ab-91, and differs from it in the CDRs of the heavy chain only.
VL: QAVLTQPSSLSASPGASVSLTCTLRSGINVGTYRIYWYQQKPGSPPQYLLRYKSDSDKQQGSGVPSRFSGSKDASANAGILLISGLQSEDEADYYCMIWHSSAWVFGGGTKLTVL
VH: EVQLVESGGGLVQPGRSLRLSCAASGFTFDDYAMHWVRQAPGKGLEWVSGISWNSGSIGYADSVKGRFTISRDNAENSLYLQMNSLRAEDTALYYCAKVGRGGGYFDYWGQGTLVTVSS

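Phage display of a naive human antibody library on the peptide gave the parent. In library AAYL51, one, two or three CDR residues were substituted; doubles and triples were drawn at random. In AlphaSeq, yeast of one mating type display the scFv and yeast of the other type display the target. Pairs that bind mate more often; barcode pairs of the diploids are counted by sequencing. Scores were corrected for input abundance and mapped to Kd with protein pairs of known affinity run in the same pool. Each pool was mated in three replicate cultures.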

Variants are written as CDR1, CDR2 and CDR3 of the heavy chain (limits as in the source). Parent: GFTFDDYAMH, GISWNSGSIGYADSVK, VGRGGGYFDY. Scale: log10 of Kd in nM, estimated from mating counts; low values are strong binders. Where no diploid with the target was found in that replicate, the entry reads "nd": below detection, most likely a poor binder, though not proof of it. Empty control strains, which show no peptide, gave a signal in 21% of pairings with library AAYL51; the median was 4.54 and 95% of these signals were weaker than 3.26. No background was subtracted. The control count says in how many pairings with the empty strains this scFv gave a signal, with their mean in brackets.

CDR-H1 | CDR-H2 | CDR-H3 | log10 Kd (nM) by replicate | control signals
GFTFDDYAMH | GISQYSGSIRYADSVK | VGRGGGYFDY | 4.46 nd nd | 2/9 (3.63)
GFTFDDYAMH | MISWNSHSIGYADSVK | LGRGGGYFDY | nd nd nd | 0/9
GFTFDDYAMH | AISWNSGSIGYADSVK | VGENGGYFDY | 3.89 3.84 nd | 0/9
GFTFDDYAMH | GISWNSGQIGYADSVW | VGRGGGYFEY | nd nd nd | 3/9 (4.52)
GWTFDDYAMH | GISWISGSIGYADSVK | YGRGGGYFDY | nd nd nd | 1/9 (5.21)
GFTFDDYAMH | GISWNSGAIGYADSVM | VGRGGGYFDY | 2.13 2.26 1.98 | 6/9 (5.01)
GFTFDDYVMN | GISWNSGSIGYADSVK | VGRGGGYFDY | nd nd nd | 1/9 (3.80)
GFTFDDYACH | GISWNLGSIGYADSVQ | VGRGGGYFDY | 3.28 3.46 4.15 | 4/9 (4.06)
GFTFDDYAMH | GISWNSGSIGCADSVK | AGRGGGYFDY | 4.38 5.66 nd | 1/9 (4.83)
GFTFDDYAMH | GISWNSGSWGYADSVQ | VGRGGSYFDY | 3.97 5.33 nd | 4/9 (4.05)
GFTTDAYAMH | GISWNSGSIGMADSVK | VGRGGGYFDY | nd nd 2.39 | 0/9
GFTFDDYAMH | GTSWNSGSIGYADSVK | VGRRGGYFDD | nd nd nd | 0/9
GFTFDDYAMH | GISWLSGSIGYAPSVK | VGRAGGYFDY | 4.42 nd nd | 5/9 (5.03)
GPTFDDYADH | GIQWNSGSIGYADSVK | VGRGGGYFDY | nd 3.47 nd | 1/9 (2.58)
GFAFDDYRMH | GASWNSGSIGYADSVK | VGRGGGYFDY | 3.94 4.22 nd | 1/9 (4.31)
GFTFDDYAMH | GISMNSWSIGYADSVK | VGRGGGYCDY | 3.46 nd nd | 1/9 (2.57)
GFTFDDNAMH | GISWNSGSIGYADSVQ | VGRFGGYFDY | 4.26 3.85 3.49 | 1/9 (4.01)
GFTFDEYAMH | GISWNSGSIGYADSVK | VGRGGGYFQY | nd 2.75 3.32 | 1/9 (4.54)
GFTFDDYAMH | GASWFSGSMGYADSVK | VGRGGGYFDY | nd nd nd | 0/9
GFTFDDYAMH | GISWNSGSIGFADSVK | MGRGGGYYDY | 3.73 5.80 nd | 3/9 (3.99)
GFTFDDYAMH | KISFNSGSIGPADSVK | VGRGGGYFDY | 4.59 5.03 5.81 | 8/9 (5.08)
GFTFDDYAMH | GRSWNSGSIGYADSVD | YGRGGGYFDY | nd nd 3.60 | 2/9 (3.95)
GFTFDDYAMH | GISWNSGSHGKADSVK | VPRGGGYFDY | 4.60 5.87 nd | 0/9
GFTFDDYLMI | GISWNSGSIGYADSVC | VGRGGGYFDY | 4.71 nd nd | 3/9 (4.92)
GFTFDDYAMH | GGSWNSGSIGYADTVK | WGRGGGYFDY | 3.99 4.61 nd | 6/9 (4.29)
GFTFDDHAMC | DISWNSGSIGYADSVK | VGRGGGYFDY | 5.96 5.55 nd | 3/9 (5.12)
PFTFDDYAMH | GISWNSGSIGYADSVK | VGRGGKYFDY | nd nd nd | 0/9
GFTFDDYAMH | GISWNSGSIGYAKAVK | VGRDGGYFDY | 5.98 4.80 4.93 | 3/9 (4.13)
GFTFDDYAMH | GISWNSGSDGYADSVK | VGKGPGYFDY | 1.34 1.18 0.70 | 2/9 (4.10)
GFTFDDYAMH | GISWNSGTDGYADSHK | VGRGGGYFDY | nd nd nd | 0/9
GFFFDDYAMH | GISWNSGSIGYADSRK | VTRGGGYFDY | 5.74 5.37 4.42 | 4/9 (4.93)
GFTFDDYAMH | GISWNFGSIGYADVQK | VGRGGGYFDY | nd nd nd | 0/9
GFTFDDDAMH | GISWNSGSIGYADSVK | VGRGGKRFDY | 5.13 4.78 nd | 5/9 (4.40)
GFTYDDYAMH | GISWNSGSIGYADSVK | VRRGGGYGDY | nd 4.33 nd | 1/9 (3.79)
GFTFDDYAMH | GSSWNSGSIGYAFSVK | VGRGGGYFDY | nd nd nd | 1/9 (3.09)
GATFDDYAMH | WISWNSGDIGYADSVK | VGRGGGYFDY | nd nd nd | 1/9 (2.92)
GKTFKDYAMW | GISWNSGSIGYADSVK | VGRGGGYFDY | nd nd 4.71 | 2/9 (4.22)
GFAFDDYAMH | GISWNSGSIGYAGSVK | VCRGGGYFDY | 4.50 6.68 nd | 7/9 (4.84)
GFTFDDYASH | GISWNIGSIRYADSVK | VGRGGGYFDY | nd nd 2.66 | 1/9 (3.90)
GFTFDDYAWH | GISWNPGSIGYADSVK | VGRGGGYFDY | 4.23 nd nd | 8/9 (4.94)
SFTFDDYAMH | GISWNSGSIGYADSVK | TGRGGGYFDP | nd nd 4.46 | 3/9 (4.65)
AFTFDDYAMH | GISWNSGSIGYNDSVK | VGRGWGYFDY | nd nd 5.00 | 2/9 (4.98)
GFHFDDKAMH | WISWNSGSIGYADSVK | VGRGGGYFDY | nd 5.02 nd | 2/9 (3.92)
GFTFDYYAMH | GMSWNSGSIGYADSVK | VHRGGGYFDY | 4.31 nd nd | 1/9 (3.35)
GFTFDDYAMH | GISQNSGSIGYADSVK | VGRGGPYFDL | nd nd nd | 0/9
GFTFDDYKWH | GISWNKGSIGYADSVK | VGRGGGYFDY | nd nd nd | 1/9 (3.52)
GFTFDDYAMH | GIADNSGSIGYADSVK | VGRGPGYFDY | 6.07 nd nd | 5/9 (4.60)
GFTFDDYAMH | GISWNSGHIGYADSVK | VGRGWGAFDY | 3.17 2.89 2.54 | 2/9 (3.33)
GFTFDDYAMH | GICWNWGTIGYADSVK | VGRGGGYFDY | nd nd nd | 1/9 (4.87)
IFTWDDYAMH | GISWNSGSIGYADSVK | VGRGGGYFDY | nd 4.32 nd | 1/9 (5.12)
GFTFDDYAMH | GISWNSGSIGYAQSVK | VGRGGGYFKY | 1.95 1.90 1.28 | 1/9 (5.14)

Repeated from above, the 4 best binders with a signal in all replicates:

CDR-H1,CDR-H2,CDR-H3,log10 Kd (nM) by replicate,control signals
GFTFDDYAMH,GISWNSGSDGYADSVK,VGKGPGYFDY,1.34 1.18 0.70,2/9 (4.10)
GFTFDDYAMH,GISWNSGSIGYAQSVK,VGRGGGYFKY,1.95 1.90 1.28,1/9 (5.14)
GFTFDDYAMH,GISWNSGAIGYADSVM,VGRGGGYFDY,2.13 2.26 1.98,6/9 (5.01)
GFTFDDYAMH,GISWNSGHIGYADSVK,VGRGWGAFDY,3.17 2.89 2.54,2/9 (3.33)